Our source for the Ratio values is ChEMBL document CHEMBL1148576, “Identification of potent water soluble purine-scaffold inhibitors of the heat shock protein 90” (J Med Chem, 2006).

The chains behind the UniProt entries cited, without tags or fusion partners.
UniProt P08238, whole entry: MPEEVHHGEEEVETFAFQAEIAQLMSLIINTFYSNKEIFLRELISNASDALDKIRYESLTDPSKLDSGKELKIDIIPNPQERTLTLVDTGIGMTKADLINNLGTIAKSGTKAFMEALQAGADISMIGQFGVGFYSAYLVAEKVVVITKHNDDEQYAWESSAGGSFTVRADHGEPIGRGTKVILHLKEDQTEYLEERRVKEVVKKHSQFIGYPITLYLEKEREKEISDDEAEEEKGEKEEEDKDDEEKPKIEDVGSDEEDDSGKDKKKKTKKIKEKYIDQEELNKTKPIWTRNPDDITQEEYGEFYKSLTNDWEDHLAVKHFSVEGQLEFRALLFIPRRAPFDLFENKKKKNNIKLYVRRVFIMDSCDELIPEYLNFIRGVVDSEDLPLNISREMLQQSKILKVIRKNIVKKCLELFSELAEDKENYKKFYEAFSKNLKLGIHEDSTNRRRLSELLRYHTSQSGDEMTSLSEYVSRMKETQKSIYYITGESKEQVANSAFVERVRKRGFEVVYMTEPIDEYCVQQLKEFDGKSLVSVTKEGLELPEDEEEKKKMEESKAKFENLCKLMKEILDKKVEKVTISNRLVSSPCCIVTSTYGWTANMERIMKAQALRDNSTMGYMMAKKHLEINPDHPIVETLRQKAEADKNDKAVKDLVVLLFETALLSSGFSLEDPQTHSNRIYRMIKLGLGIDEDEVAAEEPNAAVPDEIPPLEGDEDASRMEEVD

In experiment [1] the target is T1, Heat shock protein HSP 90-beta (Homo sapiens, UniProt P08238). Put plainly: Specificity towards transformed SKBr3 cell line over normal heart tissue Hsp90. It counts as functional, tissue-based.
The target of experiment [2] is T1, Heat shock protein HSP 90-beta. Put plainly: Specificity towards transformed SKBr3 cell line over normal lung tissue Hsp90. It counts as functional, cell-based.

Turning to `CC(C)NCCCn1c(Cc2cc3c(cc2I)OCO3)nc2c(N)nc(F)nc21`, the values for the Ratio in experiment [1] and in experiment [2] were 140 and 48, respectively.
